Assay results reported in ChEMBL document CHEMBL1128713, “N-alkylated nitrogen-in-the-ring sugars: conformational basis of inhibition of glycosidases and HIV-1 replication” (J Med Chem, 1995).

Target: T1, Trehalase (Rattus norvegicus, UniProt O70282)
T1 sequence (O70282 whole entry): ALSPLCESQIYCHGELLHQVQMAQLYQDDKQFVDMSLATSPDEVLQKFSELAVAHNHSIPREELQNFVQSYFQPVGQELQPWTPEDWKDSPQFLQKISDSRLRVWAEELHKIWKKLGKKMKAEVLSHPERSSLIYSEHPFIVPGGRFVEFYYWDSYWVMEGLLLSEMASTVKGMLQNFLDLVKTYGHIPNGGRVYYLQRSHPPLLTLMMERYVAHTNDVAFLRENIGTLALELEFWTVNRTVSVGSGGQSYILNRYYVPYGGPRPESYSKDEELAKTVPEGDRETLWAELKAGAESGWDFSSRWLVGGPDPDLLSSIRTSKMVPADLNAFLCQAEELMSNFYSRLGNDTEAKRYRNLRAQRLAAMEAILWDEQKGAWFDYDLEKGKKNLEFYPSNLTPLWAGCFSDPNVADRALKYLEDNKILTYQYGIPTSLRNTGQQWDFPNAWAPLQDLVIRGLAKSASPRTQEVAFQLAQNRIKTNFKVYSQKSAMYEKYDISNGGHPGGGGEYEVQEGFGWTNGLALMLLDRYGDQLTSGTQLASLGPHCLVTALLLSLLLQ
Test: Inhibition of Glycosidases (trehalase)in rat intestinal brush border membranes by D-glucose oxidase-peroxidase method
Type: cell membranes, Membrane

`CN1[C@H](CO)[C@@H](O)[C@H](O)[C@H]1CO` was tested, and the pIC50 was greater than 4.30.
Compound `CCCCN1[C@H](CO)[C@@H](O)[C@H](O)[C@H]1CO` has a pIC50 greater than 4.30.

pIC50: −log10 of the molar value.
